Reference: patent publication US11567085B2, “Photo-cleavable surfactants” (Wisconsin Alumni Research Foundation, priority 2018, dated 2023)

Tested on: cardiac tissue proteins
Assay: Surfactant-aided protein extraction from insoluble cardiac tissue pellet, SDS-PAGE and protein assay
Conditions: for protein solubilization ability: 0.5% surfactant in 25 mM NH4HCO3, SDS-PAGE and Bradford protein assay (FIG. 16)
Method: Data presented were based on three independent experiments (n=3). Error bars represent standard error of the mean.
Protein extraction from cardiac tissue. The frozen tissue samples (˜500 mg) were cut into small pieces and washed with PBS buffer containing protease inhibitors and reducing agent (5 mM DTT, 1 mM PMSF, 1× protease inhibitor cocktail). […] The homogenate was centrifuged at 211,750×g using Beckman Ultracentrifuge and a Ti-80 rotor for 1 h. The supernatant after the first HEPES extraction was removed and saved as “E1” extraction. The HEPES extraction was repeated on the resulting pellet and saved as “E2”. After the second HEPES extraction, the tissue pellet was suspended in 25 mM NH4HCO3 and evenly divided into smaller aliquots. In one aliquot, 25 mM NH4HCO3 buffer with no surfactant (NS) was used in a 1:1 ratio (homogenate:buffer) and labeled as “E3”. In the other aliquots, surfactants (1% in 25 mM NH4HCO3) were individually added to the other aliquots in a 1:1 ratio (homogenate:surfactant) and labeled as “E3” following incubation and centrifugation.

## 4-hexylphenylazosulfonate
  protein solubilization ability: drastically better protein solubilization ability
Listed as Azo6
  protein solubilization ability: drastically better protein solubilization ability
0.5% surfactant in extraction buffer, E3 after HEPES extractions, SDS-gel and Pierce 660 nm protein assay (FIG. 2)
  effectiveness in solubilizing proteins: highly effective
